In the assay the target is D2 receptors (Homo sapiens (Human), UniProt P14416). Briefly: D2 β-arrestin recruitment (Tango) assay. The format is cell-based. To be noted: normalized to quinpirole (100%).

Sequences of proteins named here, by UniProt entry; tags and fusion partners are left off.
UniProt P14416, whole entry, looked up: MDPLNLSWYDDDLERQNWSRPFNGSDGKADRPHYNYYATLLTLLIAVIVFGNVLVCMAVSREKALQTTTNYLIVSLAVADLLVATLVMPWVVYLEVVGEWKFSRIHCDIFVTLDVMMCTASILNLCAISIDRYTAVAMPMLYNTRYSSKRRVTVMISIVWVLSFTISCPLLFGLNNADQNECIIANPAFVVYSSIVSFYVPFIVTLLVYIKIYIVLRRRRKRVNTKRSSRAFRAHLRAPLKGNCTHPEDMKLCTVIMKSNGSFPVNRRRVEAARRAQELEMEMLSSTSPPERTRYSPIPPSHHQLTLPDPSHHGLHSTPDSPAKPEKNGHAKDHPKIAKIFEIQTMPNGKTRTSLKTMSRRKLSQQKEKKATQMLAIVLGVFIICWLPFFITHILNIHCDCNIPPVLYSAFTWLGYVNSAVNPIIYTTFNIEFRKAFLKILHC

Take `O=c1[nH]c2ccc(OCCCCN3CCN(c4cccc(Cl)c4Cl)CC3)cc2[nH]1` [Compound 35]: the “β-arrestin (Tango) Emax” value is recorded as 65%.
